Assay results reported in patent US6420373B1, “9-N-Bicyclic nuceoside agents useful as selective inhibitors of proinflammatory cytokines” (Merrell Pharmaceuticals Inc., priority 1993, dated 2002).

Tested on: D-galactosamine animal model of septic shock
Experiment: D-galactosamine animal model of septic shock (protection against lethal effects of LPS)
Format: in vivo
Conditions: treated about 1 hour before i.p. challenge of D-galactosamine and LPS, by 18 hours after challenge, test compound 100 mg/kg i.p.

Question: For `CC(=O)CCCCn1c(=O)c2c(ncn2C)n(C)c1=O` [Pentoxifylline], which protection (mice) is on record?
Answer: The protection was 12.5%.

Question: And the mice killed?
Answer: Its mice killed is 7 out of 8.
